The numbers were not newly measured in US20070122482A1, “Method for preparing modified release pharmaceutical compositions” (priority 2003, published 2007), which cites them from elsewhere.

As to `Cc1nc2n(c(=O)c1CCN1CCC(c3noc4cc(F)ccc34)CC1)CCCC2` [Risperidone], the Solubility in water entry is recorded as “Insoluble”.
